Data on 1 compound can be found in paper PMC7597670 (Bioorganic & medicinal chemistry letters, 2010).

The test system of this assay is HIV envelope glycoprotein-mediated cell–cell fusion (CD4/CCR5). Nature of the assay: cells. Particulars: Human immunodeficiency virus 1, CCR5, read-out: Fusion assay pIC50 (converted).

Structures are written as SMILES.

Turning to `CCCCN1C(=O)[C@@H]([C@H](O)C2CCCCC2)NC(=O)C12CCN(Cc1ccc(Oc3ccccc3)cc1)CC2` [Compound 4], the IC50 is 7.76 nM.
